Broadly, the Papp is a coefficient for how fast a substance crosses the barrier. One may read the Cmax as the highest concentration seen after dosing. Broadly, the bioavailability is dose-corrected exposure relative to a reference, in per cent. Low values mean little systemic uptake, high ones much systemic uptake. The term IC50 denotes the concentration at which inhibition is half-maximal. The low end stands for inhibition by little substance, the high end for a need for much substance. Broadly, the viability is a per cent measure of how many cells are alive, often set against a control. The low end stands for a greater loss of cells, the high end for better survival.

Protein sequences, listed by entry. Tags and fused reporters are not part of them.
UniProt P21397, whole entry: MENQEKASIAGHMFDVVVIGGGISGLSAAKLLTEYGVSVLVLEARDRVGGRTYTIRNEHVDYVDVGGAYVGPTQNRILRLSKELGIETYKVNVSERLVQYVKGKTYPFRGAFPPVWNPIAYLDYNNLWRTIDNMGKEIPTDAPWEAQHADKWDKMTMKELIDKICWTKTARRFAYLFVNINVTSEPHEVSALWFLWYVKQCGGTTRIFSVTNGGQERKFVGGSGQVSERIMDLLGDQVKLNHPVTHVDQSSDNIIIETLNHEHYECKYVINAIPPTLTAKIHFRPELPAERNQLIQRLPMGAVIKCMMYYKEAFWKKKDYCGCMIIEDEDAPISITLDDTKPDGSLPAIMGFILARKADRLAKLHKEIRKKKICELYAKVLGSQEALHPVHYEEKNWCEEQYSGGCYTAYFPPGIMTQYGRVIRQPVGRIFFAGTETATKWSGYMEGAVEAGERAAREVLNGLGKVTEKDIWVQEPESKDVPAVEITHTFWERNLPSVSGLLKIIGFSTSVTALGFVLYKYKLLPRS

Molecules are shown by their SMILES. A value given as a limit tells only on which side of the number the result lay.

Series [1] in a line: in vivo. Particulars: Sprague-Dawley, rat, not told, iv.
Series [2] is described as follows: in vivo. Particulars: Sprague-Dawley, rat, po, 15 mg/kg.
The nature of series [3]: in vivo. Particulars: Sprague-Dawley, rat, brain, iv, 17.5 mg/kg.
Series [4] in a line: in vivo. Particulars: Sprague-Dawley, rat, po, 15 mg/kg. This is another data set of the same source.
Series [5] in a line: in vivo. Conditions: Sprague-Dawley, rat, iv, 5 mg/kg.
Series [6] in a line: in vivo. Conditions: Sprague-Dawley, rat, brain, iv, 4 mg/kg.
The target in series [7] is Amine oxidase [flavin-containing] A (Homo sapiens, UniProt P21397).
The nature of series [8]: in vitro. Conditions: rat, PC12 cells.

`NC(=O)Cc1nc2cc(OCc3ccc(F)cc3)ccc2[nH]1`: the apparent permeability (Papp) in series [1] was found to be 5.26 ×10⁻⁶ cm/s. The peak concentration (Cmax) at 24 h in series [2] stood at 13600 ng/mL; in series [5], 4940 ng/mL. The compound also yielded a concentration at 4 h in series [3] of 738 ng/g. The bioavailability at 24 h in series [4] was over 100%. Besides, the concentration at 0.75 h in series [6] is 323 ng/g. The IC50 in series [7] was found to be 26 µM. The viability at 24 h, 50 µM in series [8] worked out at 99.4%.

Values taken from ChEMBL document CHEMBL5550170, “Discovery of novel benzimidazole derivatives as selective and reversible monoamine oxidase B inhibitors for Parkinson's disease treatment” (Eur J Med Chem, 2024).
